{"source": "ChEMBL document CHEMBL4428027", "about": "“3-Hydroxypyrimidine-2,4-diones as Selective Active Site Inhibitors of HIV Reverse Transcriptase-Associated RNase H: Design, Synthesis, and Biochemical Evaluations” (J Med Chem, 2016)", "assay": "Selectivity index, ratio of IC50 for HIV integrase to IC50 for inhibition of RNase H activity of full length recombinant HIV1 reverse transcriptase"}
{"smiles": "COc1ccc(-c2cccc(Nc3cc(=O)n(O)c(=O)[nH]3)c2)c(OC)c1", "values": [{"measurement": "Ratio IC50", "value": 3.9}]}
